Laboratory results reported in patent US12201629B2 (priority 2017, dated 2025).

Assay: Example 2: pharmacokinetics of oral and intravenous buprenorphine hydrochloride under naltrexone blockade
Details: i.v. 0.3 mg (as base) over 15 min

CO[C@@]12CC[C@@]3(C[C@@H]1[C@](C)(O)C(C)(C)C)[C@H]1Cc4ccc(O)c5c4[C@@]3(CCN1CC1CC1)[C@H]2O5.Cl [Buprenorphine i.v., Buprenorphine HCl]
Buprenorphine mean plasma concentration (0 h): 0.146 ng/mL
Buprenorphine mean plasma concentration (0.033 h): 0.186 ng/mL
Buprenorphine mean plasma concentration (0.083 h): 1.377 ng/mL
Buprenorphine mean plasma concentration (0.167 h): 2.380 ng/mL
Buprenorphine mean plasma concentration (0.417 h): 2.314 ng/mL
Buprenorphine mean plasma concentration (0.5 h): 1.838 ng/mL
Buprenorphine mean plasma concentration (0.75 h): 1.420 ng/mL
Buprenorphine mean plasma concentration (1.75 h): 0.962 ng/mL
Buprenorphine mean plasma concentration (2.25 h): 0.786 ng/mL
Buprenorphine mean plasma concentration (4.25 h): 0.535 ng/mL
Buprenorphine mean plasma concentration (6.25 h): 0.453 ng/mL
Buprenorphine mean plasma concentration (12.25 h): 0.237 ng/mL
